The source of these data is patent US20160052937A1, “Tetrahydroimidazo[1,5-d][1,4]oxazepine compound” (Eisai R&D Management Co., Ltd., priority 2014, published 2016).

Chains of the proteins cited; added tags and fusions are not shown. Residues count along the entry.
UniProt Q14416, 19-872 limits assumed: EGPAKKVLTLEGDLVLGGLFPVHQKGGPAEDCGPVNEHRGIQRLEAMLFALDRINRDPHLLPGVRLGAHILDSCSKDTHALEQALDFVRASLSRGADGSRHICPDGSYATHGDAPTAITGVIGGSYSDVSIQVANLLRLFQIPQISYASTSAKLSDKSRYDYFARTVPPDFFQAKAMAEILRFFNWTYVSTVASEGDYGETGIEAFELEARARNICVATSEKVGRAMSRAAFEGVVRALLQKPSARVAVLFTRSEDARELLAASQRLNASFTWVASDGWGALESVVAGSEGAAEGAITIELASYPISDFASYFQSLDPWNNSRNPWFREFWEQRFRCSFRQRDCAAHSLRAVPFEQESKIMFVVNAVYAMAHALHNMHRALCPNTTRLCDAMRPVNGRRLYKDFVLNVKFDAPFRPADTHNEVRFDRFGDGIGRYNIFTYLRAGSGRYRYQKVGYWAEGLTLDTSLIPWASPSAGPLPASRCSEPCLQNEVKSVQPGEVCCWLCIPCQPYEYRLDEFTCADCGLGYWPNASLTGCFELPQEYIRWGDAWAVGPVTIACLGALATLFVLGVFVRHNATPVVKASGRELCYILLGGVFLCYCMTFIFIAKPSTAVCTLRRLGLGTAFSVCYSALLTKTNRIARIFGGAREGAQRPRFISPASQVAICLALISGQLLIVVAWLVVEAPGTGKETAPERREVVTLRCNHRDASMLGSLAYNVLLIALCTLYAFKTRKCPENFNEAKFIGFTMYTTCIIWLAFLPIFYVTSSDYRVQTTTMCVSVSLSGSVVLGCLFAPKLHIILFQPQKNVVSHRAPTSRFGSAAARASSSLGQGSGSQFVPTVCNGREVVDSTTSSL

Molecules are shown by their SMILES. pIC50: −log10 of the molar value.

The target of this assay is human metabotropic glutamate receptor 2 (mGluR2) (Homo sapiens, UniProt Q14416). Put plainly: [35S]GTPγS binding assay (Affinity to mGluR2). As to conditions: read-out: GTPγS binding assay IC50; cell membrane fraction of HEK293 cells stably expressing human mGluR2; glutamic acid 10 μM. As to the method: (Preparation of Cell Membrane Fraction of HEK293 Cells Stably Expressing Human Metabotropic Glutamate Receptor 2 (mGluR2))
HEK293 cells stably expressing human mGluR2 and human glutamate transporter SLC1A3 were cultured in a Dulbecco's modified Eagle's medium with 10% fetal bovine serum (50 units/mL of penicillin, 50 μg/mL of streptomycin, 60 μg/mL of geneticin, 400 μg/mL of hygromycin B and 2 mM of glutamine) at 37° C. under 5% CO2. Confluent cell cultures were washed twice with PBS(−), and then scraped off with a cell scraper, and subjected to centrifugal separation at 4° C. and 1500 rpm for 5 minutes for collecting cells. The centrifuged sediment (cell pellet) was homogenized in a 20 mM HEPES buffer containing 10 mM EDTA (pH 7.4) by using sonicator and centrifuged at 4° C. and 1500×g for 30 minutes. […]
The frozen cell membrane fraction prepared as described above was thawed before use, and the resultant was diluted with a buffer for a binding assay (final concentrations: 20 mM HEPES, 100 mM NaCl, 1 mM MgCl2, 3 μM GDP, 300 μg/mL saponin, 0.1% BSA). […] After the incubation, the plate was subjected to the centrifugal separation at 2,500 rpm and room temperature, and then, membrane cell binding radioactivity was measured with a top count. […]
A general note: GTPγS resists hydrolysis and so accumulates on activated G proteins.

As to `CCOc1ccc(-c2nc(-c3ccc(S(=O)(=O)NC(C)C)cc3)c3n2C[C@@H](CF)OCC3)cc1`, the pIC50 is 8.44.

In general, pIC50 refers to −log10 of the IC50, conventionally taken in molar units.
